{"source": "patent US20080125469A1", "about": "“Thiadiazole compounds and methods of use thereof” (Wyeth, priority 2006, published 2008)", "molecular_target": "T1, purified recombinant human Aggrecanase-2 (Agg2-Phe628) (Homo sapiens, UniProt Q9UNA0)", "T1 construct": "(Agg2-Phe628) (MW=41,737), which is a truncated form of full-length human aggrecanase-2; made in house; host or cells: CHO cells", "T1 sequence (Q9UNA0 262-628 limits assumed)": "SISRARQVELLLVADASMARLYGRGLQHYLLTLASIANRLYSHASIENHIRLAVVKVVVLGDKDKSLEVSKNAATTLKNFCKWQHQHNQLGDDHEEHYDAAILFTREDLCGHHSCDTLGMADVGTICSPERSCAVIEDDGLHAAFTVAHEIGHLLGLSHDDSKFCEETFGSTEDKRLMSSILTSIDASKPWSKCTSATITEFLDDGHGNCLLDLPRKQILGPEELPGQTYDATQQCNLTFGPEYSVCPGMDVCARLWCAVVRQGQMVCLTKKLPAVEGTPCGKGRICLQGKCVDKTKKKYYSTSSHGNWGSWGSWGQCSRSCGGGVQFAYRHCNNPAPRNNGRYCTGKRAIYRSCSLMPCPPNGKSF", "test": "Aggrecanase 2 continuous in vitro fluorescence assay", "assay_type": "biochemical", "settings": "Agg2-Phe628 0.5 μg/ml, substrate 25 μM, 30° C.", "experimental": "A continuous vitro fluorescence assay was employed, wherein the enzyme used in the assay was a purified recombinant human Aggrecanase-2 (Agg2-Phe628) (MW=41,737), which is a truncated form of full-length human aggrecanase-2 that was expressed in CHO cells and purified prior to use. The final concentration of Agg2-Phe628 was 0.5 μg/ml. The buffer used in this assay was 50 mM HEPES, pH 7.5, 100 mM NaCl, 5 mM CaCl2, 0.1% CHAPS, 5% glycerol. The substrate used in the assay was a synthetic peptide having the sequence ABz-TESESRGAIY-Dap(Dnp)-KK—NH2 (>95% pure by HPLC, AnaSpec, Inc.), wherein Abz refers to ortho-aminobenzyl, a fluorescent group which is quenched by energy transfer to a 2,4-dinitrophenyl group. The final concentration of substrate in the assay was 25 μM and was spectrophotometrically determined using the extinction coefficient at 354 nm of 18,172 M^−1cm^−1. The Vmax and Km for this enzyme/substrate reaction were determined to be insensitive to DMSO up to at least 10% (v/v).\nAn illustrative Thiadiazole Compound (in duplicate) was serially diluted from 2 mM to 0.01 μM in DMSO. The total reaction volume was 100 μl. […]\nThe fluorescence intensity is linear during the time of data collection. […] The maximal rate of cleavage of substrate was determined in the absence of inhibitor. The percent inhibition of activity in the presence of inhibitor was calculated using the following equation: […]"}
{"smiles": "COc1ccc(C2=NNC3(S2)C(=O)N(Cc2ccccc2)c2ccc(C)cc23)cc1", "note": "(stereo not shown) [Compound 22, 1-benzyl-5′-(4-methoxyphenyl)-5-methyl-3′H-spiro[indole-3,2′-[1,3,4]thiadiazol]-2(1H)-one]", "values": [{"measurement": "IC50", "result": 0.644, "unit": "µM"}]}
